This is a selection; strong and weak results do not stand in their true shares. The source made the active and inactive calls.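 The calls were made as follows: active = mean inhibition across replicates at least about 35%, with every replicate also reaching that limit (limit read from the data); inconclusive = only one of the two criteria met; inactive = neither criterion met.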
Molecular target: Caspase-6 (Homo sapiens) (UniProt P55212)
Assay: human caspase-6 inhibitors, primary screen, biochemical, VEID-R110 fluorescence, single point, set 2 (AID 686996);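 also: 0% = median of neutral control wells and 100% = no fluorescence left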
Settings: purified caspase-6, Z-VEID-R110 cleavage fluorescence; at 12.5 µM; hits give high values

Chains of the proteins cited; added tags and fusions are not shown. Lines headed by an entry give the natural chain unless they say otherwise; changes in a name come on top.
UniProt P55212: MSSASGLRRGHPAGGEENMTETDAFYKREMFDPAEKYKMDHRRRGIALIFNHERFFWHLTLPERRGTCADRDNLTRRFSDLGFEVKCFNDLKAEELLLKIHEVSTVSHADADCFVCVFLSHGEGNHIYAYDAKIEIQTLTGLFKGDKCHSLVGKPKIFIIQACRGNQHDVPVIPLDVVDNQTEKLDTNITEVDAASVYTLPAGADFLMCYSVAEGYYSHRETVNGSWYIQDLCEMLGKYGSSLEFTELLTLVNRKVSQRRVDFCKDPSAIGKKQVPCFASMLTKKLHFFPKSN

Row | SMILES | inhibition
1 | O=C(OC1CN2CCC1CC2)c1ccc(Cl)cc1 (centres undefined) | inactive: -10.5%
2 | CS(=O)(=O)c1ccc(Cl)c(NC(=O)COC(=O)C(O)(c2ccccc2)c2ccccc2)c1 | inactive: 0.295%
3 | COc1cc(C(=O)NCC2(N3CCOCC3)CCCCC2)cc(Cl)c1OC(C)C | inactive: 0.587%
4 | O=[As](O)(O)c1cccnc1 | inactive: 2.1%
5 | O=[As](O)(c1cccc(O)c1)c1cccc(O)c1 | inactive: 0.182%
6 | Nc1cccc2c([As](=O)(O)O)cccc12 | active: 57.4%
7 | Cc1ccc(NCCc2c([N+](=O)[O-])cc([N+](=O)[O-])cc2[N+](=O)[O-])cc1 | inactive: 0.393%
8 | CCCOP(=S)(Nc1nc(N)cc(=O)[nH]1)OCCC | inactive: 0.563%
9 | CCOP(=O)(Nc1cccc2ccccc12)OCC | inactive: -2.23%
10 | O=P(Nc1nccs1)(Oc1ccccc1)Oc1ccccc1 | inactive: -0.481%
11 | CCOP1(=S)c2c(C)nn(CCC#N)c2N=C(c2ccccc2F)N1C (centres undefined) | inactive: 3.49%
12 | Nc1ccccc1[As](=O)(O)c1ccccc1 | inactive: 4.61%
13 | O=C(O)COc1ccc([As](=O)(O)O)cc1[N+](=O)[O-] | inactive: -7.02%
14 | NC(=O)Nc1ccc([As](=O)(O)O)cc1 | inactive: -0.601%
15 | CCOP1(=S)c2c(C)nn(CCC#N)c2N=C(c2ccc(F)cc2)N1C (centres undefined) | inactive: 1.18%
16 | CN(C(=O)Cc1ccccc1)[C@@H]1CC[C@]2(CCCO2)C[C@H]1N1CCCC1 | inactive: -2.2%
17 | N#CCCN(C(=O)COC(=O)C(O)(c1ccccc1)c1ccccc1)c1ccc(F)cc1 | inactive: 1.98%
18 | CN(C(=O)Cc1ccc(Cl)c(Cl)c1)[C@H]1CC[C@@]2(CCCO2)C[C@@H]1N1CCCC1 | inactive: -1.94%
19 | CN(C)C(=O)c1cc([N+](=O)[O-])cc2c1-c1c(cc([N+](=O)[O-])cc1[N+](=O)[O-])C2=O | inactive: 2.94%
20 | CC1CCC(C(C)C)C(OP(=O)(Nc2ccccn2)c2ccccc2)C1 (centres undefined) | inactive: -0.512%
21 | Cc1ccc(C(=O)OC2CN3CCC2CC3)cc1 (centres undefined) | inactive: -4.88%
22 | CN(C)C1(CNC(=O)c2ccc(S(C)(=O)=O)cc2)CCCCC1 | inactive: -4.04%
23 | CCCC1OP(=O)(Nc2ccccc2)OCC1CC (centres undefined) | inactive: 2.99%
24 | O=C(/C=C/c1ccccc1)OC1CN2CCC1CC2 (centres undefined) | inactive: -0.647%
25 | Cc1ccc(S(=O)(=O)N(CCCN)CCCc2c(C)nc(N)[nH]c2=O)cc1 | inactive: -0.151%

Row | SMILES | inhibition
26 | Nc1cccc([As](=O)(O)c2ccccc2)c1 | inactive: 3.33%
27 | NS(=O)(=O)c1cccc(NC(=O)COC(=O)C(O)(c2ccccc2)c2ccccc2)c1 | inactive: 1.78%
28 | O=[As](O)(c1cccs1)c1cccs1 | inactive: 1.72%
29 | CCC1=CC2Cc3nc4ccc(Cl)cc4c(N)c3C(C1)C2 (centres undefined) | inactive: 4.04%
30 | CCOP(=O)(Nc1ccc(C)cn1)OCC | inactive: 0.866%
31 | CC(C)(C)C(=O)NC(Sc1ncccn1)C(Cl)(Cl)Cl (centres undefined) | inactive: -2.5%
32 | O=P1(N(CCCl)CCCl)NCCC(C(F)(F)F)O1 (centres undefined) | inactive: -6.42%
33 | COc1ccccc1CNC(=O)COC(=O)C(O)(c1ccccc1)c1ccccc1 | inactive: -4.13%
34 | CN(C(=O)Cc1ccc(Cl)c(Cl)c1)C1CCCC[C@@H]1N1CCCC1 (some centres undefined) | inactive: -8.47%
35 | CC(C)/C=N\N=C(\N)N[N+](=O)[O-] | inactive: 0.311%
36 | CN(C(=O)Cc1ccc(Cl)c(Cl)c1)[C@@H]1CCCC[C@H]1N1CCCC1 | inactive: 5.43%
37 | COC(=O)C1(C)COP(=O)(N2CCCC2)OC1 (centres undefined) | inactive: 0.775%
38 | COP1(=S)c2c(C)nn(CCC#N)c2N=C(c2ccc(F)cc2)N1C (centres undefined) | inactive: 1.45%
39 | O=C(O)C(=O)c1ccc(N(CCCl)CCCl)cc1 | inactive: 1.52%
40 | O=C(Nc1ccncc1[N+](=O)[O-])c1ccc([N+](=O)[O-])cc1[N+](=O)[O-] | inactive: 7.55%
41 | O=C(OC1CN2CCC1CC2)c1cccc([N+](=O)[O-])c1 (centres undefined) | inactive: -7.8%
42 | CCOC(=O)c1ccc(NC(=O)C(C)(CCl)SC)cc1 (centres undefined) | inactive: -3.36%
43 | CCOC(=O)Nc1ccc([As](=O)(O)O)c(O)c1 | inactive: 4.93%
44 | O=C(O)C(O)c1ccc(N(CCCl)CCCl)cc1 (centres undefined) | inactive: -0.664%
45 | CC1CCNP(=O)(N(CCCl)CCCl)O1 (centres undefined) | inactive: -48.5%
46 | COP(=O)(OC)N1CC1c1ccccc1 (centres undefined) | inactive: 0.104%
47 | CCCCOc1ccc(C(=O)NCC2(N3CCCCC3)CCCCC2)cc1OC | inactive: 0.839%
48 | CCOC(=O)Nc1cccc([As](=O)(O)O)c1 | inactive: -3.74%
49 | O=P(Nc1ccccn1)(c1cccc2ccccc12)c1cccc2ccccc12 | inactive: -1.85%
